Measured values: patent publication US20260174739A1 (priority 2022, published 2026)

Amino acid sequences for entries named in this document (tags omitted).
UniProt Q01959, whole entry: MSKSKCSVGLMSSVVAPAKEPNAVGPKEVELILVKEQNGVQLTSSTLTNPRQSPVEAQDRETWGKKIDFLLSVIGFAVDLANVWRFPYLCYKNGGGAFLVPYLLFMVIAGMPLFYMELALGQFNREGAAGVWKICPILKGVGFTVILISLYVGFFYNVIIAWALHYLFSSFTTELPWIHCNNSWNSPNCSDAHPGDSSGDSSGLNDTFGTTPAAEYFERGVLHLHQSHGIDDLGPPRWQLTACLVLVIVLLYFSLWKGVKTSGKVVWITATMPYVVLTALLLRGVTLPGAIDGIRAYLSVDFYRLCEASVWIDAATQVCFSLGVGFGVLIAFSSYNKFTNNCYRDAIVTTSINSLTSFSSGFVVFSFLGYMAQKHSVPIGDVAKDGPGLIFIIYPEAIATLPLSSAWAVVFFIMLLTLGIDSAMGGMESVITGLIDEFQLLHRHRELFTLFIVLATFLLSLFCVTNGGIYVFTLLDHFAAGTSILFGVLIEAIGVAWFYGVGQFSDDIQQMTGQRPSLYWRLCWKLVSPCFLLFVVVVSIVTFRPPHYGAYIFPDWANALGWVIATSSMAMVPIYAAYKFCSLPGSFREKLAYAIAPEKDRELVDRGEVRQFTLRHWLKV

Target: human DAT (Homo sapiens, UniProt Q01959)
Test: DAT transporter inhibitory activity test (neurotransmitter transporter uptake assay kit)
Assay type: cell-based
Conditions: DAT stably transfected HEK cells
Description: Transporter inhibition of human DAT and NET expressed in HEK-293 cells was assessed using a neurotransmitter transporter uptake assay kit. […] The specific procedures were as follows:
DAT stably transfected culture: The DAT-HEK cell line was cultured in DMEM medium containing 10% fetal bovine serum and 0.2 mg/mL hygromycin B at 37° C. with 5% carbon dioxide.
DAT stably transfected cell passage: the old medium was removed, and the cells were washed once with PBS; 1 mL of TrypLE™ Express solution was then added, and the cells were incubated at 37° C. for about 2 min. When the cells were detached from the bottom of the dish, about 5 mL of complete medium pre-heated at 37° C. was added. The cell suspension was gently pipetted to separate the aggregated cells. The cell suspension was transferred to a sterile centrifuge tube and centrifuged at 1000 rpm for 5 min. […]
• a) After overnight transfection of NET cells, the cells were digested with trypsin, resuspended with DMEM+10% Dialyzed FBS medium, seeded into a 384-well plate at 20000 cells/well, and incubated overnight. […] After centrifuging, the plate was incubated at 37° C. for 60 min. • f) After incubation, the reading at 510 nm under the excitation of the detection wavelength of 425 nm was measured using a microplate reader. […]

## N[C@@]1(c2ccccc2)CCc2ccsc2C1 [S-A19]
  IC50: 2.2 µM
